Assay results: patent publication US9629855B2, “Pharmaceutical composition for treatment of eye pain, containing PGE2 synthesis inhibitor” (INDUSTRY-ACADEMIC COOPERATION FOUNDATION, YONSEI UNIVERSITY, priority 2011, dated 2017)

Tested on: patients having an ocular pain symptom
Assay: Number of eye blinks after intraocular administration of selective COX2 inhibitors to ocular pain patients
Assay type: in vivo, human
Settings: control group = Diclofenac

SMILES: Cc1ccc(-c2cc(C(F)(F)F)nn2-c2ccc(S(N)(=O)=O)cc2)cc1 [Celecoxib]
- Number of eye blinks of treated group (n = 3): 17
